## scFv variants of Ab-14 (light chain) against a SARS-CoV-2 spike peptide

Values reported by Li et al. 2023, doi:10.1038/s41467-023-39022-2 (FLAb copy).

Binding partner: SARS-CoV-2 spike HR2 peptide, sequence PDVDLGDISGINAS.

Parent: Ab-14, a human scFv built as VH, a (GGGGS)3 linker, VL. Only the CDRs of the light chain vary.
VH: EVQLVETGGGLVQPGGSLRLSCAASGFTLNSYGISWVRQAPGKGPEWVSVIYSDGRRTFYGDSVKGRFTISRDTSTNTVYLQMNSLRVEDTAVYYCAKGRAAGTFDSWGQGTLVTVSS
VL: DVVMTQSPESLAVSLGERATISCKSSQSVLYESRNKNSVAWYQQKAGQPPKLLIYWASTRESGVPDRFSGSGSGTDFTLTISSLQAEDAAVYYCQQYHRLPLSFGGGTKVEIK

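The starting antibody came from a phage panning campaign against this peptide. These sequences belong to a second round, designed from the earlier measurements on random variants of the parent. Their group label is 14L_En_Gen (En: ensemble of fine-tuned language models; Gen: genetic algorithm). The assay is AlphaSeq: two haploid yeast populations carry antibody and antigen on their surface. Mating (16 h, 30 °C) was followed by selection of diploids and sequencing of their barcodes. Read counts were normalised to the haploid input and turned into Kd by a linear fit to BCL2-family pairs of known affinity, for each replicate. The assay was run in six technical replicates.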

Variants are written as CDR1, CDR2 and CDR3 of the light chain (limits as in the source). Parent: KSSQSVLYESRNKNSVA, WASTRES, QQYHRLPLS.
Scale: log10 of Kd in nM, estimated from mating counts; low values are strong binders.
Replicates are averaged; those with no signal do not enter the mean.
An entry "nd" has no value in the source: the pair was not observed among the diploids in that replicate. This suggests poor binding but is not conclusive.
Three control strains display no target. For all light chain designs, 4% of the pairings with them gave a signal, with a median of 2.64 and one signal in twenty below 1.59, so weak values seen in few replicates may be background. For each scFv, signals with the empty controls are counted beside the result, with their mean in brackets.
The parent sequence was in this pool as ten entries: three were never detected, three once, and four in most replicates, with averages from 0.34 to 2.37.
The range of this assay differs from that of the first round, and the authors advise against merging the two.
In the paper, a design with two or fewer of six values counts as a poor binder.

| # | CDR-L1 | CDR-L2 | CDR-L3 | replicates, log10 nM | mean, log10 nM | control signals |
|---|---|---|---|---|---|---|
| 1 | KLSQVTGHLSVEKNNVA | EMETREN | QQYDRLPLA | 1.32 / 1.41 / 0.91 / 0.39 / 0.67 / 0.87 | 0.93 | 2 of 18 (2.40) |
| 2 | HITYGMQVAGRHSKSIA | QAETREK | QQYDRLPLT | 0.57 / 0.26 / 0.47 / 0.68 / 1.83 / 0.58 | 0.73 | 0 of 18 |
| 3 | KIGATLNTLSHKQNNVA | DLVQREN | QQYFRLPLS | 0.24 / 0.33 / 0.40 / 0.11 / 0.04 / 0.27 | 0.23 | 1 of 18 (4.23) |
| 4 | MLSMVTEGMRRKHNSVA | DNSTREA | QQYDRLPLS | 2.73 / 1.62 / 1.62 / 1.26 / 1.93 / 1.86 | 1.84 | 0 of 18 |
| 5 | MISQLYNMGTFAINSVA | QAEIRNA | QQYDRLPLA | 0.94 / 1.25 / 1.29 / 1.13 / 1.19 / 1.21 | 1.17 | 0 of 18 |
| 6 | MISQLWNMGSFAINSVA | QAEIRNE | QQYDRLPLI | 1.06 / nd / nd / 1.48 / 2.27 / nd | 1.60 | 0 of 18 |
| 7 | MISQLYNMGQFAINSVA | QASLRNE | QQYDRLPLT | 1.62 / 1.37 / 2.06 / 2.06 / 1.50 / 2.23 | 1.81 | 0 of 18 |
| 8 | HITYGMNVAGRHSSSIA | QAETREK | QQYDRLPLE | 0.93 / 1.20 / 0.58 / 1.26 / 1.02 / 1.50 | 1.08 | 2 of 18 (2.41) |
| 9 | IVSQLMLWGYTAKNSIA | EAETRIN | QQYHHLPLF | nd / nd / nd / nd / nd / nd | nd | 0 of 18 |
| 10 | KLYSVTGTEKVNGNNVA | EMETRER | QQYNRLPLS | 0.39 / 0.66 / 0.38 / 0.47 / 0.32 / 0.80 | 0.50 | 2 of 18 (2.33) |
| 11 | KFSQMSNMFSVSMNAVA | EMSTRPE | QQYNRLPLS | 0.58 / 0.30 / 0.19 / 0.13 / 0.43 / 0.70 | 0.39 | 1 of 18 (2.86) |
| 12 | IVSQLMLWGMHVKNSIA | EAETRLN | QQYERLPLF | 0.79 / 0.62 / 0.96 / 1.16 / 0.75 / 1.03 | 0.89 | 1 of 18 (2.56) |
| 13 | IVSQLMLWGYHAKNSIA | EAKLRLN | QQYDRLPLI | nd / nd / nd / nd / nd / nd | nd | 1 of 18 (1.18) |
| 14 | KISSLYNMTFEASNNVA | EMVTREK | QQYNRLPLS | nd / nd / nd / nd / nd / nd | nd | 0 of 18 |
| 15 | TIGVTLMQGIRNRSNVA | EVSERLN | QQYDRLPLI | 0.90 / 1.00 / 0.51 / 0.66 / 1.04 / 0.74 | 0.81 | 3 of 18 (2.19) |
| 16 | MISQIINMGQFAINSVA | QASLRCN | QQYDRLPLM | 0.65 / 0.53 / 0.64 / 0.52 / 0.10 / 0.57 | 0.50 | 0 of 18 |
| 17 | KFSQMVNSLSVSNSAVA | EMSTRPE | QQYNRLPLS | 0.64 / 0.43 / 1.27 / 0.95 / 0.99 / 0.78 | 0.84 | 0 of 18 |
| 18 | MISQLYNMGQFAINSVA | QASERSN | QQYDRLPLA | 0.82 / nd / nd / nd / nd / 2.05 | 1.43 | 0 of 18 |
| 19 | MISQLINMGSFAINSVA | QASIRCN | QQYDRLPLM | 1.88 / 2.13 / 2.26 / 1.90 / 1.23 / 1.54 | 1.83 | 0 of 18 |
| 20 | MVYGAAMMGGSARNSIA | NAQMRPD | QQYHRLPLI | 0.41 / nd / nd / nd / 0.30 / 0.27 | 0.33 | 1 of 18 (0.20) |
| 21 | IVSQLMIWGMHLKNSIA | EAETRLN | QQYERLPLF | nd / 1.77 / 0.91 / 1.99 / 1.90 / 2.53 | 1.82 | 1 of 18 (1.17) |
| 22 | IVSQLMLWGYHAKNSIA | EAQTRLN | QQYDRLPLI | nd / nd / nd / nd / nd / nd | nd | 0 of 18 |
| 23 | MISQLYNMGQFAINSVA | QAETRNE | QQYDRLPLE | 0.46 / 0.94 / 0.08 / 0.60 / 0.79 / 0.93 | 0.63 | 0 of 18 |
| 24 | KLVNFMNRGTHHTSNIA | DAQNRTD | QQYYRLPLA | 0.75 / 1.47 / 2.17 / 0.90 / 0.87 / 0.89 | 1.18 | 0 of 18 |
| 25 | TIGGTLMMGYRNRSNVA | EVSERLN | QQYDRLPLF | nd / 1.45 / 2.53 / 1.18 / 1.48 / 1.61 | 1.65 | 1 of 18 (2.85) |
| 26 | HFGLATMLEEYVRNSVA | NNSTREN | QQYDRLPLS | 1.67 / 2.93 / 2.28 / 4.89 / 2.49 / 3.21 | 2.91 | 0 of 18 |
| 27 | QIYQAMHTLSQMKDNVA | DVNERGT | QQYFRLPLS | 0.48 / 0.92 / 0.56 / 0.29 / 0.38 / 0.59 | 0.54 | 0 of 18 |
| 28 | MISQLMNMGQFAINSVA | QASIRNI | QQYDRLPLA | 0.89 / 0.12 / -0.12 / 0.07 / 0.03 / 0.62 | 0.27 | 2 of 18 (2.33) |
| 29 | HMSMLTLQGMRHKNSVA | QMTTREN | QQYDHLPLS | 1.51 / 1.32 / 1.95 / 1.15 / 1.95 / 2.97 | 1.81 | 2 of 18 (1.90) |
| 30 | MISQILNMGQFAINSVA | QASIRNA | QQYDRLPLA | 1.22 / 0.60 / 1.11 / 1.11 / 0.60 / nd | 0.93 | 0 of 18 |
| 31 | MISQVMNTLTREGNNVA | DLAEREN | QQYFRLPLS | 2.10 / 2.09 / nd / nd / 1.63 / 1.77 | 1.90 | 0 of 18 |
| 32 | SIGGHMKSLSAHMNSVA | DMTNRED | QQYDRLPLS | 0.90 / 0.75 / 1.08 / 0.99 / 0.88 / 1.08 | 0.94 | 2 of 18 (2.82) |
| 33 | QLSMITGHVSMSKNNVA | EMETRVN | QQYDRLPLS | nd / nd / nd / nd / nd / nd | nd | 0 of 18 |
| 34 | KLASVTGTEKVRGNNVA | EMETRER | QQYNRLPLA | 1.36 / 1.58 / 1.46 / 0.83 / 1.85 / 1.69 | 1.46 | 0 of 18 |
| 35 | KLYEMSYELSGKTHSVA | DNSTRGD | QQYFRLPLQ | 0.63 / 1.08 / 1.29 / 0.78 / 0.71 / 1.24 | 0.95 | 1 of 18 (3.62) |
| 36 | NISHFMDVTAKKNNNVA | EMTMREM | QQYHHLPLS | 1.29 / 1.30 / 1.91 / 0.97 / 1.71 / 1.73 | 1.49 | 2 of 18 (3.47) |
| 37 | KIGSTLNQLMHKKNNVA | DLVMREN | QQYFRLPLS | nd / 0.33 / 1.35 / 0.79 / 0.47 / 1.08 | 0.80 | 0 of 18 |
| 38 | KLSMVTGHMSMAKNNVA | EMVTREK | QQYNRLPLS | 0.63 / 0.61 / 0.57 / 0.94 / 0.48 / 0.68 | 0.65 | 2 of 18 (3.43) |
| 39 | MLSQMFGLGMKTSNSVA | QASMRFN | QQYDRLPLI | nd / 1.92 / 1.53 / 1.62 / 1.35 / 1.57 | 1.60 | 0 of 18 |
| 40 | KIGDTLNQLMTKKNNVA | DLVEREN | QQYFRLPLS | 1.24 / 1.05 / 0.98 / 0.88 / 1.02 / 1.31 | 1.08 | 1 of 18 (2.90) |
| 41 | TISQVMNTLTRNTNNVA | DLTERTK | QQYFRLPLS | 0.22 / 0.15 / 0.23 / 0.04 / 0.32 / 0.34 | 0.22 | 2 of 18 (3.08) |
| 42 | TISQLYNMGSFAINSVA | QASLRNE | QQYDRLPLM | 1.46 / 1.73 / 1.26 / 1.56 / 1.39 / 1.16 | 1.43 | 1 of 18 (2.85) |
| 43 | TLYGLSVSMSKNTNNVA | EMTTRED | QQYDRLPLI | 1.44 / 1.55 / 0.79 / 1.62 / 1.57 / 2.22 | 1.53 | 0 of 18 |
| 44 | MMSSLMGYESRHINNVA | QTSTRES | QQYDRLPLI | 1.11 / 1.49 / 1.26 / 0.59 / 0.80 / 0.78 | 1.01 | 0 of 18 |
| 45 | MISQLMNMGQFAINSVA | QASIRNH | QQYDRLPLA | 0.74 / 1.08 / 0.58 / 0.92 / 1.07 / 0.85 | 0.87 | 0 of 18 |
| 46 | MLSQMTGWGMKASNSVA | QASTRFT | QQYHRLPLI | 2.10 / 2.20 / 2.29 / 2.05 / nd / 1.72 | 2.07 | 1 of 18 (2.87) |
| 47 | KLSMVTGHQLMSKDNVA | EMETREN | QQYDRLPLS | 0.87 / 0.83 / nd / -0.29 / nd / nd | 0.47 | 0 of 18 |
| 48 | QLYEMLYELSGKTHSVA | DNSTRGD | QQYFRLPLE | 2.11 / nd / 1.70 / 1.35 / 1.36 / nd | 1.63 | 1 of 18 (2.87) |
| 49 | KLGATLNTEMTKKNNVA | DLVTREN | QQYHRLPLS | 0.23 / 0.05 / -0.13 / -0.10 / -0.10 / 0.23 | 0.03 | 4 of 18 (2.74) |

The opening 3 entries, copied out:

| CDR-L1 | CDR-L2 | CDR-L3 | replicates, log10 nM | mean, log10 nM | control signals |
|---|---|---|---|---|---|
| KLSQVTGHLSVEKNNVA | EMETREN | QQYDRLPLA | 1.32 / 1.41 / 0.91 / 0.39 / 0.67 / 0.87 | 0.93 | 2 of 18 (2.40) |
| HITYGMQVAGRHSKSIA | QAETREK | QQYDRLPLT | 0.57 / 0.26 / 0.47 / 0.68 / 1.83 / 0.58 | 0.73 | 0 of 18 |
| KIGATLNTLSHKQNNVA | DLVQREN | QQYFRLPLS | 0.24 / 0.33 / 0.40 / 0.11 / 0.04 / 0.27 | 0.23 | 1 of 18 (4.23) |